Results from patent publication US20140163096A1, “METHODS AND COMPOSITIONS FOR TREATING HIV-ASSOCIATED DIARRHEA” (priority 2012, published 2014).

Amino acid sequences for entries named in this document (tags omitted). A change or cut given only in a name is not applied to a line headed by its entry.
UniProt Q12809: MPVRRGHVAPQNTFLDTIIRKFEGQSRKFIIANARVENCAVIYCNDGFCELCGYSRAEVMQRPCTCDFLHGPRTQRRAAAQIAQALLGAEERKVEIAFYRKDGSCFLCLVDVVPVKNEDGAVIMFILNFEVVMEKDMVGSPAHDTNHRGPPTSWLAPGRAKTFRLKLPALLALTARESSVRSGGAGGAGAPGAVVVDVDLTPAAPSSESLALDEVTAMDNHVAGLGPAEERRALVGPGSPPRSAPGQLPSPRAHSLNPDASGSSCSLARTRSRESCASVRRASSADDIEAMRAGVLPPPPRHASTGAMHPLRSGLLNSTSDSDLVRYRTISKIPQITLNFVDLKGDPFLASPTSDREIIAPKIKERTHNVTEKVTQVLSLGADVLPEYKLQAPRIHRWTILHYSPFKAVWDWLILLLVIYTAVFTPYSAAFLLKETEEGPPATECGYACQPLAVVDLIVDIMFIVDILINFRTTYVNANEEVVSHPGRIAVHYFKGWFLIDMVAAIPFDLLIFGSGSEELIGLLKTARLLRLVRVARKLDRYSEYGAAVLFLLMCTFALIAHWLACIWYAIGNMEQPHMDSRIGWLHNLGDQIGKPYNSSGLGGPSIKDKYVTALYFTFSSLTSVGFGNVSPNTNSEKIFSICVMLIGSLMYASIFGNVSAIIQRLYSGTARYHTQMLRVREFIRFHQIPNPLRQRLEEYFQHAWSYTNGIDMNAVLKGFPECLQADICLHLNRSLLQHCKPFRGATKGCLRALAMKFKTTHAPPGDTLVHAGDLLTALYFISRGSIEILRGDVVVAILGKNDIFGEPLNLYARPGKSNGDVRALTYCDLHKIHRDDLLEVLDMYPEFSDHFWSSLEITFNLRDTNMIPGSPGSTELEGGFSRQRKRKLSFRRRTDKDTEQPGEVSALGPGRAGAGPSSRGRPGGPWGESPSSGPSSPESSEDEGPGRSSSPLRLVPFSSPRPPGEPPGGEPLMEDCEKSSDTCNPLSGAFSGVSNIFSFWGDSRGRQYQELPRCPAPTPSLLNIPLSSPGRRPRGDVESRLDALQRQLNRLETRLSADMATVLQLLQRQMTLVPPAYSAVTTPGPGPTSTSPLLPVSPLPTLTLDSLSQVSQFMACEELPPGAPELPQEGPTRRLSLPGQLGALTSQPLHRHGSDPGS

Target: hERG ion channel (Homo sapiens, UniProt Q12809)
Assay: in vitro

COc1cc(N)c(Cl)cc1C(=O)NC1CCN(CCCOc2ccc(F)cc2)CC1OC (stereo not shown) [Cisapride] gave an inhibition at 10 µM of 99.7%.
